Laboratory results as given in patent US9415067B2, “Genetic test for liver copper accumulation in dogs and low copper pet diet” (Mars, Inc., priority 2009, dated 2016).

Assay: Pharmacokinetic study of oral zinc gluconate, plasma zinc by atomic absorption spectrometry
Assay type: in vivo, dog
Conditions: from both dogs
Experimental: Two unrelated nine-year old, healthy Labrador Retrievers (1 female and 1 male) were used in a pharmacokinetic study. Food was withheld for a 12-hour period prior to oral administration of zinc, and during the initial 6-hour testing period. Water was freely available. Oral zinc gluconate was administered at a dose of 10 mg/kg in dog 1, and at a dose of 5 mg/kg in dog 2. Heparinized blood samples (4 ml) were collected from the jugular vein before dosing (time 0) and 15, 30, 45, 60, 90, 120 minutes, and 4, 8, 12 and 24 hours after application of the drug. Plasma was stored at −20° C. until analysis for zinc using atomic absorption spectrometry.
Pharmacokinetic parameters (WinNonlin 4.0.1. (Pharsight Corporation, 800 West El Camino Real, Mountain View, Calif., USA) and statistical analysis (SPSS 11.0 for windows, 2001, SPSS Inc., Chicago, Ill., USA) were calculated by use of commercially available software packages. Due to small group sizes a non-parametric statistical test was used for comparison between groups. A Mann-Whitney test was used to detect a difference between hepatic copper concentrations before and after treatment with diet and zinc-gluconate (group-1) at two control examinations (recheck-1 and recheck-2), and after treatment with diet and placebo (group-2) at both control examinations. […]

## zinc gluconate
  calculated half-life of zinc t½: 15.1 h
